Shown are actives, neighbours in structure and some others; about 1% of the full set was active somewhere.
gsp ag – gsp mutant agonism; Potency, µM (top dose mostly 76.9 µM), for the others: top-dose activation (cAMP increase), hits mostly activators; gsp mutant cells, cAMP HTRF, 30 min; 340,000 compounds, 0.13% hits; active = well fitted activation curve with a large enough effect; inconclusive = small, poorly fitted or top-dose-only effect, or another doubt; inactive = no such curve, though single readings can be large or run the other way; cell line not stated here;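 also: phosphodiesterase inhibitor Ro 20-1724 added with compounds to block cAMP breakdown; potency is read from the fitted curve at half-maximal effect; nearly all actives have a fitted effect of over 60% in size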
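Cells stably selected in G418 were plated at 2000/well, grown 16-24 hr, then given compounds in DMSO with the PDE inhibitor […] (300 uM solution added) for 30 min at 37C; cAMP was read by HTRF.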
KinaseGlo FLuc – Kinase-Glo luciferase inhibition (counter-screen). Q27757. Kinase-Glo luciferase, ATP luminescence, 8 min. 200,000 compounds, 0.28% hits. Potency, µM (series often up to 38.3 µM), for the others: top-dose activity change, negative = inhibition, actives largely listed as inhibitors; also: potency is read from the fitted curve at half-maximal effect; % is scaled to controls: 0 for no effect and ±100 for the full control effect; nearly all actives have a fitted effect of over 60% in size
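Luminescence was the read-out, taken after 8-minute incubation at ambient temperature. Luciferase turned over luciferin with 10 uM ATP in imidazole pH 7.2 buffer containing KCl, MgCl2, Tween 20 and BSA.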
RXFP1 agonist – RXFP1 (human) receptor agonism. Q9HBX9. HEK293T-RXFP1 cAMP TR-FRET, 30 min; response scale: percent of porcine relaxin response, buffer zero. Potency, µM (top dose mostly 57.5 µM), for inactives: top-dose activation, hits mostly activators. 370,000 compounds, 0.3% hits. AID 2676; also: potency is read from the fitted curve at half-maximal effect; % is scaled to controls: 0 for no effect and ±100 for the full control effect; nearly all actives have a fitted effect of over 60% in size
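cAMP rise read by TR-FRET after 30 min, 37C compound exposure (up to 58 uM) in RXFP1-transfected HEK293 cells with Ro 20174 present. EC50 from Hill-equation fits, with 29 nM porcine relaxin as 100% and buffer as basal.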
miR-21 reporter – miR-21 reporter, rising signal; Potency, µM (titrated, usually from 38.3 µM), without a hit: at the highest dose reporter change, positive = more light; AID 2288; 340,000 tested, under 10 active; HeLa miR-21 FLuc reporter, luciferase, 48 h; active = well fitted rising curve with a large enough effect; inconclusive = small, poorly fitted or top-dose-only effect; inactive = no such curve, though single readings can be large or run the other way;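 note: % of control where 0% means no effect; miR-21 action dims this reporter so a rising signal means less miR-21 action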
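HeLa cells stably expressing CMV-driven firefly luciferase with a downstream miR-21 binding sequence, endogenously expressing miR-21, were treated with titrations (up to about 40uM final) for 48 hours at 37 degree Celsius. Luciferase luminescence was read after lysis.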
RXFP1 antag – blocks the human relaxin receptor RXFP1. Q9HBX9. HEK293-RXFP1, relaxin-stimulated cAMP HTRF, 30 min; active compounds read low. activity change, negative = inhibition, % at 57.5 µM. 350,000 compounds, 0.59% hits. AID 1259400;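 active = activity change of -60% or lower, but not beyond a set lower limit; inconclusive = change between -60% and -40%, or beyond the set limit; inactive = change above -40%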; also: % is scaled to controls: 0 for no effect and ±100 for the full control effect
gsp antag – antagonizes gsp, the McCune-Albright syndrome mutation | gsp-mutant cells, cAMP HTRF, 30 min | Potency, µM (doses to about 76.9 µM), for the others: at the highest dose activity change, negative = inhibition, most hits filed as inhibitors | 340,000 compounds, 0.4% hits | AID 624288; calls by dose curve; cell line not stated here;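 also: intracellular cAMP measured with PDE inhibitor Ro 20-1724 present during compound exposure; potency is read from the fitted curve at half-maximal effect; % is scaled to controls: 0 for no effect and ±100 for the full control effect; nearly all actives have a fitted effect of over 65% in size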
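HTRF cAMP read-out (cAMP-d2 plus anti-cAMP antibody-K in lysis buffer, 30 min RT). Before lysis, cells are exposed to compounds with […] for 30 min at 37C in DPBS containing Ca/Mg, BSA and Tween 20.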
An asterisk follows results filed as active; ! = not confirmed by another sample; [ ] = another dose, or the depositor's remark. Unless noted, calls follow the shape of the dose curve; as a rule, active = well fitted curve in the direction sought with a large enough effect; inconclusive = small, poorly fitted or top-dose-only effect, or another doubt; inactive = no such curve, though single readings can be large; an effect the other way counts as inactive or inconclusive.

Results for C=CCC1=C(C)C(OC(=O)C2C(C=C(C)C)C2(C)C)CC1=O (stereo unspecified) ?
RXFP1 antag: -70*

How did Cn1c(O)c(Cc2ccc(OCc3ccccc3)cc2)c(=O)n(C)c1=O do in these assays?
gsp ag: -7%; RXFP1 agonist: 3%; miR-21 reporter: -28%; RXFP1 antag: -3; gsp antag: 7.1µM*

How did OC(CN1CC=C(c2ccccc2)CC1)c1ccccc1 (stereo unspecified) do in these assays?
gsp ag: -15%[15.4 µM]; RXFP1 agonist: -4%; miR-21 reporter: -10%; RXFP1 antag: -17; gsp antag: 10%

What do the screens show for `OC(COCc1ccc(Cl)cc1)CN1CC=C(c2ccccc2)CC1` (stereo unspecified)?
gsp ag: 9%; KinaseGlo FLuc: 1%; RXFP1 agonist: 1%; miR-21 reporter: 1%; RXFP1 antag: -61*!; gsp antag: -1%

How did N#CC(C#N)=NNc1ccc([N+](=O)[O-])cc1 do in these assays?
gsp ag: -19%; RXFP1 agonist: 1%; miR-21 reporter: 11%; RXFP1 antag: -29; gsp antag: 50µM*

Results for C[C@H]1C2C=C[C@H]1[C@@H](C(=O)O)[C@@H]2c1c2ccc(=O)c(O)c-2oc2c(O)c(O)ccc12 ?
KinaseGlo FLuc: -8%[7.66 µM]

What do the screens show for `COc1ccccc1OCCCn1cc(C(=O)C2CC2)c2ccccc21`?
gsp ag: 4%[15.4 µM]; KinaseGlo FLuc: -5%; RXFP1 agonist: 2%; miR-21 reporter: 0%; RXFP1 antag: -20; gsp antag: 45µM*

How did COc1ccccc1OCCCn1cc(C(C)=O)c2ccccc21 do in these assays?
gsp ag: 4%[15.4 µM]; KinaseGlo FLuc: 0%; RXFP1 agonist: 3%; miR-21 reporter: 11%; RXFP1 antag: -7; gsp antag: inconclusive

What do the screens show for `CCOC(C(=O)OCCN(C)C)(c1ccccc1)c1ccccc1`?
RXFP1 antag: -6

Results for COc1cc(OC)c(OC)cc1/C=C1\C(=O)NC(=O)N(Cc2ccccc2)C1=O ?
gsp ag: -1%[15.4 µM]; KinaseGlo FLuc: 10%; RXFP1 agonist: 1%; miR-21 reporter: 4%; RXFP1 antag: -9; gsp antag: 3%

Results for CC(C)N1C(=O)/C(=C/C=C/c2ccco2)C(=O)N(Cc2ccco2)C1=O ?
gsp ag: -14%; KinaseGlo FLuc: -4%; RXFP1 agonist: 0%; miR-21 reporter: -3%; RXFP1 antag: -77*; gsp antag: inconclusive

How did COc1cc(OC)c(OC)cc1/C=C1/C(=O)NC(=O)N(Cc2ccccc2)C1=O do in these assays?
gsp ag: -3%; RXFP1 agonist: 0%; miR-21 reporter: 11%; RXFP1 antag: -64*; gsp antag: 10%

What do the screens show for `O=C1NC(=O)N(Cc2ccccc2)C(=O)/C1=C/C=C/c1ccco1`?
gsp ag: 19%; RXFP1 agonist: -3%; miR-21 reporter: 12%; RXFP1 antag: inconclusive; gsp antag: 50µM*

What do the screens show for `CC[C@H](OC(C)=O)C(C[C@H](C)NC)(c1ccccc1)c1ccccc1`?
RXFP1 antag: -22

What do the screens show for `CCOC(=O)C1(c2ccccc2)CCN(CCc2ccc(N)cc2)CC1`?
RXFP1 antag: -13

How did CCCCCSc1cc(OC)c(CCNC)cc1OC do in these assays?
gsp ag: -5%; KinaseGlo FLuc: 0%; RXFP1 agonist: -1%; miR-21 reporter: -12%; RXFP1 antag: -27; gsp antag: -7%

Results for CCCCCCCSc1cc(OC)c(CCNC)cc1OC ?
gsp ag: -81%; KinaseGlo FLuc: 0%; RXFP1 agonist: 0%; miR-21 reporter: 2%; RXFP1 antag: -70*; gsp antag: 14%

Results for S=C1CN=C(c2ccccc2)c2cc(Cl)ccc2N1 ?
gsp ag: 9%; KinaseGlo FLuc: 0%; RXFP1 agonist: 0%; miR-21 reporter: 16%; RXFP1 antag: -111*; gsp antag: -11%

Results for CC(Cc1ccccc1)NCCCCl (stereo unspecified) ?
RXFP1 antag: -7

What do the screens show for `COc1cccc2c1C(=O)c1c(O)c3c(c(O)c1C2=O)C[C@@](O)(C(=O)CO)CC3OC1CC(N2CCOC(OC)C2)C(O)C(C)O1` (stereo partly specified)?
RXFP1 antag: -19

What do the screens show for `CCC1=C(C[C@H]2NCCc3cc(OC)c(OC)cc32)C[C@H]2c3ccccc3CCN2C1`?
KinaseGlo FLuc: -2%[7.66 µM]

How did CC[C@H]1CN2CCc3cc(OC)c(OC)cc3C2C[C@@H]1C[C@H]1NCCc2cc(OC)c(OC)cc21 (stereo partly specified) do in these assays?
RXFP1 agonist: 3%; gsp antag: 11µM*

Results for FC(F)(F)c1ccccc1CNCCc1c[nH]c2ccccc12 ?
gsp ag: -6%; RXFP1 agonist: 0%; miR-21 reporter: 0%; RXFP1 antag: -101*; gsp antag: 2%

Results for Fc1ccccc1CNCCc1c[nH]c2ccccc12 ?
gsp ag: -4%; RXFP1 agonist: 0%; miR-21 reporter: -19%; RXFP1 antag: -14; gsp antag: 15%

Results for O=C(O)C[SH+]CC(=O)O.O=C(O)C[SH+]CC(=O)O.[Cu] ?
KinaseGlo FLuc: 2%[7.66 µM]

What do the screens show for `C=C[C@@H]1CN2CC[C@H]1CC2[C@H](O)c1ccnc2ccccc12` (stereo partly specified)?
KinaseGlo FLuc: 2%[7.66 µM]

How did COc1cc2c(cc1OC)[C@@]13CCN4C=C5CCO[C@H]6CC(=O)N2[C@@H]1C6[C@H]5C[C@H]43 (stereo partly specified) do in these assays?
KinaseGlo FLuc: -4%[7.66 µM]

Results for CCN1/C(=C\C=C\C2=[N+](CC)c3ccccc3C2(C)C)C(C)(C)c2ccccc21 ?
gsp ag: 31%[15.4 µM]; KinaseGlo FLuc: inconclusive; RXFP1 agonist: 5%; miR-21 reporter: inconclusive; RXFP1 antag: -73*; gsp antag: -8%

Results for O=C1OC(CCN2CCCCC2)OC1(c1ccccc1)c1ccccc1 (stereo unspecified) ?
RXFP1 antag: 21

What do the screens show for `Oc1ccc(Cl)cc1Cc1ccccc1`?
gsp ag: -3%; RXFP1 antag: -82*!; gsp antag: 4%

Results for CCN1C(=O)C(=C/C=C/c2ccco2)C(=O)N(CC)C1=S ?
gsp ag: 23%; KinaseGlo FLuc: -1%; RXFP1 agonist: -1%; miR-21 reporter: 0%; RXFP1 antag: 2; gsp antag: -3%

Structures listed so far that contain a COOH group (two):
Results for C[C@H]1C2C=C[C@H]1[C@@H](C(=O)O)[C@@H]2c1c2ccc(=O)c(O)c-2oc2c(O)c(O)ccc12 ?
KinaseGlo FLuc: -8%[7.66 µM]

Results for O=C(O)C[SH+]CC(=O)O.O=C(O)C[SH+]CC(=O)O.[Cu] ?
KinaseGlo FLuc: 2%[7.66 µM]

Entries above with fluorine, in the order listed:
Results for FC(F)(F)c1ccccc1CNCCc1c[nH]c2ccccc12 ?
gsp ag: -6%; RXFP1 agonist: 0%; miR-21 reporter: 0%; RXFP1 antag: -101*; gsp antag: 2%

Results for Fc1ccccc1CNCCc1c[nH]c2ccccc12 ?
gsp ag: -4%; RXFP1 agonist: 0%; miR-21 reporter: -19%; RXFP1 antag: -14; gsp antag: 15%

Source: PubChem BioAssay (National Center for Advancing Translational Sciences (NCATS))
